# In patent US9295673B2 (dated 2016):
# Amino acid sequences for entries named in this document (tags omitted). A change or cut given only in a name is not applied to a line headed by its entry.
# UniProt O00329: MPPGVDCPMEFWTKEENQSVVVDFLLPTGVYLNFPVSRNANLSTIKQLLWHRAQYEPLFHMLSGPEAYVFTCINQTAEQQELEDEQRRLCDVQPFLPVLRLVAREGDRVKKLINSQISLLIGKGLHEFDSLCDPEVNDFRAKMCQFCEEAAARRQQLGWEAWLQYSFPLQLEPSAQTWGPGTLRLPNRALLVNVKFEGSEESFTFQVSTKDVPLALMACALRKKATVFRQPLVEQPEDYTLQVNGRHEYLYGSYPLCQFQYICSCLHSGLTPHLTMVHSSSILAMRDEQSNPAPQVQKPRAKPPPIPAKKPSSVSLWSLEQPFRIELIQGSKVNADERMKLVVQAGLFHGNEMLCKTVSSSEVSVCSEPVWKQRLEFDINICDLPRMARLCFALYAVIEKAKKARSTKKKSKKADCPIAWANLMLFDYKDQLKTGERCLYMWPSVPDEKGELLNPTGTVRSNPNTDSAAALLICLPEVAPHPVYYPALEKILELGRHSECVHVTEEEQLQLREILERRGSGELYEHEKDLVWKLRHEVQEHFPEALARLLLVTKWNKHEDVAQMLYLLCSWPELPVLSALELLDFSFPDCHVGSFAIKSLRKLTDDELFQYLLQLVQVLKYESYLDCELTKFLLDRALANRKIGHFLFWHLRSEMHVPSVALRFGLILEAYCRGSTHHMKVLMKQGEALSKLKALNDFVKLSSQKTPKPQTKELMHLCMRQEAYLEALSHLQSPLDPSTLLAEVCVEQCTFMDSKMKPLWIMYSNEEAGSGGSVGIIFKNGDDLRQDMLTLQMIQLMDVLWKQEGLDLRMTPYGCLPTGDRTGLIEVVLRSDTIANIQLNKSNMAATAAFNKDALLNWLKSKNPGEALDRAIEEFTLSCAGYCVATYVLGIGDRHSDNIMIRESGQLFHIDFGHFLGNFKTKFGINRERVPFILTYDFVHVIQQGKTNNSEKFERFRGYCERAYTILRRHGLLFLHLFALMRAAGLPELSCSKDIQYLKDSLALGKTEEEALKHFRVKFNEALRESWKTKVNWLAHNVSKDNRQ
# Target: PI3K δ (Homo sapiens, UniProt O00329)
# Test: PI 3-Kinase (human) HTRF assay, PI3K δ
# Conditions: read-out: PI3K δ IC50
structure (smiles),measurement,value
Nc1nc2cc(-c3ccc4ncc(C(=O)NC5CCC(O)CC5)n4c3)ccc2o1 (stereo not shown) [Compound 143],IC50,< 100 nM
